Reference: patent US20020013350A1 (priority 1998, published 2002)

Tested on: rice blast fungi (Pyricularia oryzae)
Type: in vivo
Conditions: 12.5 ppm, sprayed on rice (Kimmaze), inoculated 7 days after treatment

`Cc1cccc2sc3nncn3c12` [Tricyclazole, 5-Methyl-1,2,4-triazolo[3,4-b]benzothiazole] was tested, and the “Actual controlling degree (%)” value was 22%.
